Laboratory results taken from ChEMBL document CHEMBL2177053, “Current landscape of phosphodiesterase 10A (PDE10A) inhibition” (J Med Chem, 2012).

By UniProt entry, the sequences of proteins in these tests, tags left out. Where a name states a change or a piece, a line headed by the entry shows the natural chain unless it says otherwise.
UniProt Q9Y233: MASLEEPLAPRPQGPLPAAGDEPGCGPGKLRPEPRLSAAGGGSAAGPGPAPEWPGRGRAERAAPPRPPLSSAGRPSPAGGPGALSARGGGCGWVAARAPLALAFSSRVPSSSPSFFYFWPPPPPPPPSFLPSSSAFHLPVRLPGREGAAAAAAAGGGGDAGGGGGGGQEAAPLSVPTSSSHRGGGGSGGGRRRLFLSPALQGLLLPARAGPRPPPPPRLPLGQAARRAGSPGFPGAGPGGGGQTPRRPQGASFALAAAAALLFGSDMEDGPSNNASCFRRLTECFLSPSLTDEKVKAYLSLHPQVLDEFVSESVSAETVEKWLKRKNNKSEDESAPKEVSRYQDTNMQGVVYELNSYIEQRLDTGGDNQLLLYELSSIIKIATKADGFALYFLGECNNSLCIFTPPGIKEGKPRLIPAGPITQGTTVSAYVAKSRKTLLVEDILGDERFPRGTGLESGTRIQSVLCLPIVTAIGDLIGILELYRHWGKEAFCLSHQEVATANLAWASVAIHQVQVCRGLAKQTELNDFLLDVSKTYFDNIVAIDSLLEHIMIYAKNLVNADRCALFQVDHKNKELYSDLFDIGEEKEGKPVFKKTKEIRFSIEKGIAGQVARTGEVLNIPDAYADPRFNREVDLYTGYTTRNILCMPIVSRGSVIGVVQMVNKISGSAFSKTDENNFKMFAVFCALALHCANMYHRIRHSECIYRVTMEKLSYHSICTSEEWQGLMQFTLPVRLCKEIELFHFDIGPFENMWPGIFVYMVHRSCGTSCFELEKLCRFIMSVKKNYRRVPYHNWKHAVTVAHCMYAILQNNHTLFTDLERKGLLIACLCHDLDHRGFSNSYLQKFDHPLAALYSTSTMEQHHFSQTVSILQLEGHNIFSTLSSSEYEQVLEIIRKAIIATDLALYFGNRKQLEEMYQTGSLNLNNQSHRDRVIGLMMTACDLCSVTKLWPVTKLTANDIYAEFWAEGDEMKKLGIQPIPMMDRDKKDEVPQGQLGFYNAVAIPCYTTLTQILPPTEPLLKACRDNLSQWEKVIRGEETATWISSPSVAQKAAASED

Legend:
[1] = test system: Mus musculus; assay: Antipsychotic activity in NMRI mouse assessed as inhibition of phencyclidine-induced hyperlocomotion at 5 mg/kg, sc administered 60 mins prior to phencyclidine challenge measured up to 60 mins relative to vehicle-treated control; assay type: functional; settings: route subcutaneous
[2] = Selectivity ratio of IC50 for PDE1B1 to IC50 for rat recombinant PDE10A2
[3] = target: cAMP and cAMP-inhibited cGMP 3',5'-cyclic phosphodiesterase 10A (Homo sapiens, UniProt Q9Y233); assay: Inhibition of PDE10A

Cc1ncc(C)n2nc(CCc3nc(-c4ccccc4)cn3C)nc12
inhibition in vivo at 5 mg/kg [1]: 99%

COCCc1ccc(-c2c(C)nc3c(N4CCOCC4)ccnn23)cn1 [JNJ-42396302]
Ratio IC50 [2]: 100

COc1ccc(Cc2nccc3cc(OC)c(OC)cc23)cc1OC [PAPAVERINE]
IC50 [3]: 40 nM
